Test results published in paper PMC6359284, “Identification, Characterization, and Optimization of Integrin αvβ6-Targeting Peptides from a One-Bead One-Compound (OBOC) Library: Towards the Development of Positron Emission Tomography (PET) Imaging Agents” (Molecules, 2019).
Peptide text beside a SMILES is read from it. * marks the point of attachment. Benzoyl(4-F) = O=C(c1ccc(F)cc1)*

Experiments:
[1] = test system: DX3puroEmGFP (αvβ6−, green) cells; assay: On-bead validation, binding of αvβ6− fluorescent cells; settings: 3 h post-incubation, qualitative
[2] = test system: DX3puroβ6mCherry (αvβ6+, red) cells; assay: On-bead validation, binding of αvβ6+ fluorescent cells; settings: 3 h post-incubation, qualitative

| Structure (SMILES) | on-bead binding to DX3puroEmGFP (αvβ6−, green) cells, single cell assay [1] | on-bead binding to DX3puroβ6mCherry (αvβ6+, red) cells, single cell assay [2] |
| --- | --- | --- |
| CC(C)C[C@H](NC(=O)[C@H](Cc1ccc(O)cc1)NC(=O)[C@@H](NC(=O)[C@H](CC(C)C)NC(=O)[C@H](CC(=O)O)NC(=O)CNC(=O)[C@@H](N)C(C)C)[C@@H](C)O)C(=O)N[C@@H](CCCCN)C(=O)N[C@@H](CCCCNC(=O)c1ccc(F)cc1)C(N)=O [compound 1] (H-VGDLTYLKK(Benzoyl(4-F))-NH2; N-terminus assumed) | little binding | high selectivity |
| CC(C)C[C@H](NC(=O)[C@H](CC(=O)O)NC(=O)CNC(=O)[C@@H](N)CCCNC(=N)N)C(=O)N[C@@H](C)C(=O)N[C@@H](CC(=O)O)C(=O)N[C@@H](CC(C)C)C(=O)N[C@@H](CCCNC(=N)N)C(=O)N[C@@H](CCCCNC(=O)c1ccc(F)cc1)C(N)=O [compound 3] (H-RGDLADLRK(Benzoyl(4-F))-NH2; N-terminus assumed) | noticeable binding |  |
| CC(C)C[C@H](NC(=O)[C@H](CCC(=O)O)NC(=O)[C@H](CCCNC(=N)N)NC(=O)[C@H](CC(C)C)NC(=O)[C@H](CC(=O)O)NC(=O)CNC(=O)[C@@H](N)CCCNC(=N)N)C(=O)N[C@@H](C)C(=O)N[C@@H](CCCCNC(=O)c1ccc(F)cc1)C(N)=O [compound 5] (H-RGDLRELAK(Benzoyl(4-F))-NH2; N-terminus assumed) | noticeable binding |  |
| CSCC[C@H](NC(=O)[C@H](CC(C)C)NC(=O)[C@H](CC(=O)O)NC(=O)CNC(=O)[C@@H](N)CCCNC(=N)N)C(=O)N[C@@H](CCCCN)C(=O)N[C@@H](CC(C)C)C(=O)N[C@@H](C)C(=O)N[C@@H](CCCCNC(=O)c1ccc(F)cc1)C(N)=O [compound 2] (H-RGDLMKLAK(Benzoyl(4-F))-NH2; N-terminus assumed) | noticeable binding |  |
| CC[C@H](C)[C@H](NC(=O)CN)C(=O)N[C@@H](CC(=O)O)C(=O)N[C@@H](CC(C)C)C(=O)N[C@H](C(=O)N[C@@H](CO)C(=O)N[C@@H](CC(C)C)C(=O)N[C@H](C(=O)N[C@@H](CCCCNC(=O)c1ccc(F)cc1)C(N)=O)[C@@H](C)O)[C@@H](C)O [compound 4] (H-GIDLTSLTK(Benzoyl(4-F))-NH2; N-terminus assumed) | no binding | no binding |
